The test deals with T1, Diacylglycerol O-acyltransferase 2 (Homo sapiens, UniProt Q96PD7).
T1 sequence (Q96PD7 whole entry): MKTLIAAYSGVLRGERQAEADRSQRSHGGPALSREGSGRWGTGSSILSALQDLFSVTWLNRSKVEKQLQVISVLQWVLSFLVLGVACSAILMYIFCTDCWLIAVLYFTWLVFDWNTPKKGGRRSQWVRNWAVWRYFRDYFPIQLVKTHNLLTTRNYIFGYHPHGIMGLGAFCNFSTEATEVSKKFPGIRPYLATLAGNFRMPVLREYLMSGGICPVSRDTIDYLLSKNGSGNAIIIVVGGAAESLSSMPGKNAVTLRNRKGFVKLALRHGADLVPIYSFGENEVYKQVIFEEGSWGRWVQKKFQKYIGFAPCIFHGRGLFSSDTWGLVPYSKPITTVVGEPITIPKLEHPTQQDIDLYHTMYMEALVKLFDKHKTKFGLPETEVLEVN
The test is described as follows: Inhibition of human DGAT2. The procedure, abridged:
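IC50 against human DGAT2 in an enzymatic assay, reported as the geometric mean of at least three replicates with SEM.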

As for `CS(=O)(=O)O.O=C([C@@H]1CCCN(c2ccc3nc(C4(n5cc(Cl)cn5)CC4)[nH]c3n2)C1)N1CCCC1`, the half-inhibitory concentration (IC50) came to 17 nM.

One may read the IC50 as the midpoint of a concentration-inhibition curve.

Source of the values: ChEMBL document CHEMBL4261487, “Small structural changes of the imidazopyridine diacylglycerol acyltransferase 2 (DGAT2) inhibitors produce an improved safety profile” (Medchemcomm, 2017).
